Our source for the IC50 values is publication PMC3153478, “Structural Basis for Species Specific Inhibition of 17β-Hydroxysteroid Dehydrogenase Type 1 (17β-HSD1): Computational Study and Biological Validation” (PLoS ONE, 2011).

Sequences of proteins named here, by UniProt entry; tags and fusion partners are left off. Residues count along the entry.
UniProt Q9GME2, 1-314: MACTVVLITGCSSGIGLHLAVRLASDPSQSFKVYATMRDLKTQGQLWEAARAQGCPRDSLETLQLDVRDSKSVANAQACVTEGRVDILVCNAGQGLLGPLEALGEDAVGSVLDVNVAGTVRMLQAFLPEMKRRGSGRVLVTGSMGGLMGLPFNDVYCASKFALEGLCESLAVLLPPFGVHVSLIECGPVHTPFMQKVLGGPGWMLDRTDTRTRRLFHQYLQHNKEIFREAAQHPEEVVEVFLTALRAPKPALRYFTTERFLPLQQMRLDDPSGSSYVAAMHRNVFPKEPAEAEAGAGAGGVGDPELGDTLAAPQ
UniProt U3BEV1, 1-387: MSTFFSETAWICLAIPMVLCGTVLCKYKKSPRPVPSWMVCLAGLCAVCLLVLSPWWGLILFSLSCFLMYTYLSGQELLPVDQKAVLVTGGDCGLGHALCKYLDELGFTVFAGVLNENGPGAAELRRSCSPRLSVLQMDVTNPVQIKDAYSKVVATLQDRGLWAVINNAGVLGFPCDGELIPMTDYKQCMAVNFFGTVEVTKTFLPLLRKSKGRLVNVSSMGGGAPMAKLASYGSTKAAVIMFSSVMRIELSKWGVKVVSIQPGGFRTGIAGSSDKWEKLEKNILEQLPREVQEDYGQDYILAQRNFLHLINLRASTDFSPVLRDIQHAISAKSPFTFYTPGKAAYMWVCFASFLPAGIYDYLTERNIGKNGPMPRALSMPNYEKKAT

The subject of one test is human 17β-HSD2. The note with it: read-out: Human IC50 17ß-HSD2; Human placental, microsomal fraction, substrate E2, 500 nM, cofactor NAD+, 1500 µM; ref literature (references indicated with the structural formulas in Fig. 3); cited from earlier work.
In the next test the target is marmoset 17β-HSD1 (Callithrix jacchus, UniProt Q9GME2). Briefly: Inhibition of marmoset 17β-HSD1 (placental cytosolic fraction, tritiated E1, HPLC).
A further test concerns the target marmoset 17β-HSD2 (Callithrix jacchus, UniProt U3BEV1). Briefly: Inhibition of marmoset 17β-HSD2 (placental microsomes, tritiated E2, HPLC). In kind it is biochemical, marmoset monkey (callithrix jacchus). The note with it: read-out: Marmoset IC50 17ß-HSD2; Logit transformed values calculated from % inhibition at 50 nM inhibitor concentration (trend for <30% or >70%); placental microsomal fraction, substrate E2 500 nM, NAD+ 1500 µM. On the procedure: Marmoset placental tissue was used as enzyme source and the proteins were partially purified following a described procedure. Tritiated E1 was incubated with 17β-HSD1, cofactor and inhibitor. The separation of substrate and product was performed by HPLC. In an assay similar to the 17β-HSD1 test, marmoset placental microsomes containing 17β-HSD2 were incubated with tritiated E2 in the presence of NAD^+ and inhibitor. Labelled product was quantified after HPLC separation.
[2, 4, 6, 7-^3H]-E1 and [2, 4, 6, 7-^3H]-E2 were bought from Perkin Elmer, Boston. Quickszint Flow 302 scintillator fluid was bought from Zinsser Analytic, Frankfurt. Marmoset 17β-HSD1 and 17β-HSD2 were obtained from marmoset placenta according to previously described procedures. Fresh marmoset placenta was homogenized and cytosolic and microsomal fractions were separated by centrifugation. For the partial purification of 17β-HSD1, the cytosolic fraction was precipitated with ammonium sulfate. 17β-HSD2 was obtained from the microsomal fraction.
The 17β-HSD2 inhibition assay was performed similarly to the 17β-HSD1 procedure. The microsomal fraction was incubated with NAD^+ [1500 µM], test compound and a mixture of unlabelled- and [2, 4, 6, 7-^3H]-E2 (final concentration: 500 nM, 0.11 µCi) for 20 min at 37°C. Further treatment of the samples and HPLC separation was carried out as mentioned above. The conversion rate was calculated after analysis of the resulting chromatograms according to the following equation: [drawing 2] .

Setting [1] is: read-out: Marmoset IC50 17ß-HSD1, Logit transformed values calculated from % inhibition, inhibitor concentration: 5 nM, substrate E1 500 nM, NADH 500 µM.

Where two headings read alike, the source gives them in different places.

For `Oc1ccc(-c2cc(-c3cccc(O)c3)cs2)cc1`, the IC50 is 1690 nM in the test with human 17β-HSD2, 4 nM on marmoset 17β-HSD1 (setting [1]) and greater than 50 nM on marmoset 17β-HSD2.
Take `Oc1cccc(-c2cc(-c3ccc(O)c(F)c3)cs2)c1`: the IC50 on marmoset 17β-HSD1 (read-out: Marmoset IC50 17ß-HSD1, Logit transformed values calculated from % inhibition at 50 nM inhibitor concentration (trend for <30% or >70%), substrate E1 500 nM, NADH 500 µM) was less than 50 nM; at marmoset 17β-HSD2, 72 nM.
On to `Oc1ccc(-c2csc(-c3cccc(O)c3)c2)cc1`, for which the IC50 on marmoset 17β-HSD1 (setting [1]) is 2 nM; on marmoset 17β-HSD2, greater than 50 nM.
In the case of `Cc1cc(-c2csc(-c3cccc(O)c3)c2)ccc1O`, the IC50 is 869 nM with human 17β-HSD2, 3 nM on marmoset 17β-HSD1 (setting [1]) and greater than 50 nM at marmoset 17β-HSD2.
